Assay results published in patent publication US20240116926A1, “HETEROAROMATIC COMPOUNDS” (AstraZeneca AB, priority 2022, published 2024).

Chains of the proteins cited; added tags and fusions are not shown. Residues count along the entry.
UniProt Q15561, 217-434 limits assumed: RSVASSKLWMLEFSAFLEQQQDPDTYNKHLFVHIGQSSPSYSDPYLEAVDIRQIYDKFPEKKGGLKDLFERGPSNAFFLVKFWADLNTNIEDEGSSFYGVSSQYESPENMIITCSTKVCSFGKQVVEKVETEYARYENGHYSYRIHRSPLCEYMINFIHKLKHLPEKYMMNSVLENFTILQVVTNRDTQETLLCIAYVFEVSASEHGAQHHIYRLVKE

Legend:
[1] = molecular target: TEAD4(217-434) (Homo sapiens (Human), UniProt Q15561); assay: TEAD4 FRET; assay type: binding; conditions: read-out: TEAD4 FRET IC50; depalmitoylated, biotinylated TEAD4(217-434), FAM labelled Probe A, 120 min at 25° C.
[2] = test system: MCF7-Luciferase cell line; assay: Control reporter (MCF7-Luciferase); conditions: read-out: control reporter IC50; MCF7-Luciferase cells, luciferase activity after 24 hours
Experimental: (iii) Control Reporter (MCF7-Luciferase)
(§1) MCF7-Luciferase cell line was obtained from GENTARGET (catalog number SC050-L) and was maintained in DMEM containing 10% fetal calf serum, 2 mM glutamine. Cells were grown in a humidified incubator at 37° C. with 5% CO2. Cells were distributed to flat bottom white polystyrene TC treated 384 well plates at a density of 3,500 cells/well in 30 μL. Cells were incubated for 24 hours at 37° C. with 5% CO2. Cells were acoustically dosed using an Echo 555, with compounds serially diluted in 100% DMSO. Plates were incubated for an additional 24 hours. Cells were examined for luciferase activity through the addition of 30 μL Bright-Glo luciferase (Promega catalog number E2620). Plates were incubated for 10 minutes at room temperature and luminescence was read using Tecan plate reader. The data obtained with each compound was exported to GENEDATA software to perform curve fitting analysis. IC50 value was calculated based on the concentration of compound that is required to give a 50% effect compared to DMSO control.

[3] = test system: MCF7-Tead cell line; assay: TEAD reporter assay; conditions: read-out: TEAD reporter IC50; MCF7-Tead cells, luciferase activity after 24 hours
Experimental: as §1, with “MCF7-Tead” for “MCF7-Luciferase”, “BPS BIOSCIENCE” for “GENTARGET”, “60618)” for “SC050-L)”, “glutamine, and 400 μg/ml G418.” for “glutamine.”, “uL.” for “μL.”

IC50 [1]: 61 nM
IC50 [2]: > 31700 nM
IC50 [3]: 20 nM
Structure (SMILES): C=CC(=O)N1CC[C@H](Nc2ncc(-c3ccc(C(F)(F)F)cn3)c3nccnc23)C1
